Laboratory results reported in US9969752B2, “Inhibitors of HIF prolyl hydroxylase” (MERCK SHARP & DOHME CORP., priority 2014, dated 2018).

Sequences of proteins named here, by UniProt entry; tags and fusion partners are left off.
UniProt Q9GZT9, whole entry: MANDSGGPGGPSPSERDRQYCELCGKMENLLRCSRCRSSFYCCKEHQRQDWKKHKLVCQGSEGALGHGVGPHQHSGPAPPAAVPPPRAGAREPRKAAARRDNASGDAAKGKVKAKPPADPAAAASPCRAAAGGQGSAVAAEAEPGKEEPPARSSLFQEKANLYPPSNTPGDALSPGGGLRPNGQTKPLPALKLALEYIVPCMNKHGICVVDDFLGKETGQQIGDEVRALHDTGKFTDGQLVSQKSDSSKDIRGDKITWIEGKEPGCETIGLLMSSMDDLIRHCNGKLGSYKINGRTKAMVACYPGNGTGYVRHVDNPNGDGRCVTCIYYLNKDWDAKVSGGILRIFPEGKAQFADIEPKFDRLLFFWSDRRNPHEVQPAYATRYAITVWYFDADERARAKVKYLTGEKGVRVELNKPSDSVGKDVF

Molecular target: Human HIF-PHD2 (Homo sapiens, UniProt Q9GZT9)
Experiment: Inhibition of the hydroxylation of a HIF peptide by PHD2 (time resolved fluorescence, 384-well)
Format: biochemical
Settings: read-out: Human HIF-PHD2 IC50; FLAG-tagged full length PHD2; 0.2 μM 2-oxoglutarate, 0.5 μM HIF-1α peptide; 45 minutes at room temperature

Cc1ccc2c(O)c(C(=O)NCC(=O)O)c(=O)n3c2c1OCC3c1cscn1 (stereo not shown)
IC50: 12 nM
